This passage reports IC50 results from ChEMBL document CHEMBL1135470, “Synthesis and protein kinase inhibitory activity of balanol analogues with modified benzophenone subunits” (J Med Chem, 2002).

Structures are written as SMILES.

A word on the IC50: it is the concentration that gives 50% inhibition.

This assay addresses T1, Protein kinase C epsilon type (Homo sapiens, UniProt Q02156).
T1 sequence (Q02156 whole entry): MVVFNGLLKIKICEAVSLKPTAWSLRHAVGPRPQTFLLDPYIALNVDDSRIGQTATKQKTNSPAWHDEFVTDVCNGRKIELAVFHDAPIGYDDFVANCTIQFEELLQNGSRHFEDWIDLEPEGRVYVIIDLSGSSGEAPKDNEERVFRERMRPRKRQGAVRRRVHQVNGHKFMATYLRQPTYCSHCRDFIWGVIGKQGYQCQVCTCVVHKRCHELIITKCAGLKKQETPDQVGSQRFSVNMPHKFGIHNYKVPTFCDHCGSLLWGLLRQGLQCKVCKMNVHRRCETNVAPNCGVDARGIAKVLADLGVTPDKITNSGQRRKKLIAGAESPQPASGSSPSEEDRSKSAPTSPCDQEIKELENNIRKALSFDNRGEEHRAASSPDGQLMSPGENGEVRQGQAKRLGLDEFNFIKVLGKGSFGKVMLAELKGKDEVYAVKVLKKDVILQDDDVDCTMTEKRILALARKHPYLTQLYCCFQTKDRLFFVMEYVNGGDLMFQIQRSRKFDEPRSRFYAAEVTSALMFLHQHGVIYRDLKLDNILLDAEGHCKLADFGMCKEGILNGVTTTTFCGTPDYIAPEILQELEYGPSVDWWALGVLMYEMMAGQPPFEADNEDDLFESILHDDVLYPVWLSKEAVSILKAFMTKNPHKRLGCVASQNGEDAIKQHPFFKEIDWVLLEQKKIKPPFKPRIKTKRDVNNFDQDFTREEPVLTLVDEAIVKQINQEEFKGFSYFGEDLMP
Kind of assay: Inhibition of partially purified recombinant human calcium insensitive protein kinase C epsilon. A digest of the protocol: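 Enzyme source was partially purified recombinant human PKC isozymes and PKA. IC50 was calculated from four-point curves of 10-fold dilutions, following a previously published procedure.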

Turning to `O=C(NC1CNCCC[C@H]1OC(=O)c1cc(O)c(C(=O)c2c(O)cccc2C(=O)O)c(O)c1)c1ccc(O)cc1` (stereo partly specified), the IC50 was 38 nM.
